Test results from ChEMBL document CHEMBL5375988, “AcGlcAs: A Novel P53-Targeting Arsenical with Potent Cellular Uptake and Cancer Cell Selectivity” (J Med Chem, 2023).
Activity calls are given as the source filed them. The rule behind the calls is not given here.

Sequences of proteins named here, by UniProt entry; tags and fusion partners are left off. A change or cut given only in a name is not applied to a line headed by its entry.
UniProt P10276, whole entry, looked up: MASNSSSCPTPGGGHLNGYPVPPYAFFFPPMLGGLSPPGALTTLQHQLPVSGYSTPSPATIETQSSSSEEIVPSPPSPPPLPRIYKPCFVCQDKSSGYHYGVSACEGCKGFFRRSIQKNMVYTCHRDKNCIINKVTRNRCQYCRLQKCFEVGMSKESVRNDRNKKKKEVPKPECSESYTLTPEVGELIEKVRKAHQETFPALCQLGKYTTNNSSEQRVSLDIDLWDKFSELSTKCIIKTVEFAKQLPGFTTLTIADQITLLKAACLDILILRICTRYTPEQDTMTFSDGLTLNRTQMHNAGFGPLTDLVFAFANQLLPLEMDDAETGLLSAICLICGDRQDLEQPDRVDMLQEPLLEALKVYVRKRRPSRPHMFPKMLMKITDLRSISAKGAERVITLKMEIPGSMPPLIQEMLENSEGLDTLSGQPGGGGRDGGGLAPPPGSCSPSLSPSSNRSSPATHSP
UniProt P29590: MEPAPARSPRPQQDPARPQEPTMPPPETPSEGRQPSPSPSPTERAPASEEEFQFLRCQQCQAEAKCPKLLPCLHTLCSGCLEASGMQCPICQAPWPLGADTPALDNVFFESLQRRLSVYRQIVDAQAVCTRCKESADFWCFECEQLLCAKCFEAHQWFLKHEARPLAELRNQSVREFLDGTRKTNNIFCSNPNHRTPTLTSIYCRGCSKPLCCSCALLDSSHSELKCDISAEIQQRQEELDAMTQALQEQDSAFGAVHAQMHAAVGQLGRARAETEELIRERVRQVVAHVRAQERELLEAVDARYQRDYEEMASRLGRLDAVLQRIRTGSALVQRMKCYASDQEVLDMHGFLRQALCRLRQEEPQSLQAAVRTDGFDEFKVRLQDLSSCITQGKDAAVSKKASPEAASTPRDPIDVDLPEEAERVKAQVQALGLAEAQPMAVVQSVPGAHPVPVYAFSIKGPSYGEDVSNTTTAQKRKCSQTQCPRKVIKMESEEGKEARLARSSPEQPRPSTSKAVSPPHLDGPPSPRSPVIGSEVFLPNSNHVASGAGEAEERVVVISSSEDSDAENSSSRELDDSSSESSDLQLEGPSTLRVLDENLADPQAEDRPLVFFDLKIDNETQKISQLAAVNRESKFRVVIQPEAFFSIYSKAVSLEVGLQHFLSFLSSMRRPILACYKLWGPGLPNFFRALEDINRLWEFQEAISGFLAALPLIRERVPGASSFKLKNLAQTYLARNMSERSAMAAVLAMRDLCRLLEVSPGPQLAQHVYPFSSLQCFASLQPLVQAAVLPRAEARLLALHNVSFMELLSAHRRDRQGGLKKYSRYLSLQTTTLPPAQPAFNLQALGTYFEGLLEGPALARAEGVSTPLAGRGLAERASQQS

Tests used:
[1] = molecular target: T1, PML-RARalpha (Homo sapiens) (UniProt P10276+P29590); assay: Induction of Flag-tagged PML/RARalpha (unknown origin) degradation overexpressed in HEK293T cells at 0.4 to 2 uM incubated for 16 hrs by Western blot analysis; settings: dose 0.4-2 µM
[2] = molecular target: T1, PML-RARalpha (Homo sapiens); assay: Induction of Flag-tagged PML/RARalpha (unknown origin) degradation overexpressed in HEK293T cells at 0.06 to 0.3 uM incubated for 16 hrs by Western blot analysis; settings: dose 0.06-0.3 µM

| SMILES | Activity [1] | Activity [2] |
| --- | --- | --- |
| I[As](I)I | Active | – |
| O=[As]c1ccccc1 (configuration not stated) | – | Active |
